{"source": "paper PMC4450067", "about": "(PLoS Pathogens, 2015)", "system": "G3BP-1 and G3BP-2", "assay": "Co-immunoprecipitation with G3BP-1 antibody, detection of G3BP-2 (ternary complex) in BHK cells", "type": "binding", "settings": "G3BP-1 IP, 16 h after transfection", "data": [{"substance": "EGFP-USP10_1–40", "values": [{"measurement": "G3BP-2 detected in G3BP-1 immunoprecipitate", "value": "not in EGFP-USP10_1–40 bound complexes"}]}]}
